Format in all cases: cell-based
For one assay, the target named is hDOR (Homo sapiens, UniProt P41143). Nature of the assay: CAMYEL BRET cAMP agonist assay at hDOR. The settings on record: single replicate values, Supplementary Figure 7A. A general note: BRET reads energy transfer from a luciferase to a nearby fluorophore.
The target in a further assay is T1, mDOR (Mus musculus, UniProt P32300).
T1 construct: expressed in transfected cells
Put plainly: CAMYEL BRET cAMP agonist assay at mDOR. Conditions: single replicate values, Supplementary Figure 7B.

Sequences of proteins named here, by UniProt entry; tags and fusion partners are left off.
UniProt P41143, whole entry: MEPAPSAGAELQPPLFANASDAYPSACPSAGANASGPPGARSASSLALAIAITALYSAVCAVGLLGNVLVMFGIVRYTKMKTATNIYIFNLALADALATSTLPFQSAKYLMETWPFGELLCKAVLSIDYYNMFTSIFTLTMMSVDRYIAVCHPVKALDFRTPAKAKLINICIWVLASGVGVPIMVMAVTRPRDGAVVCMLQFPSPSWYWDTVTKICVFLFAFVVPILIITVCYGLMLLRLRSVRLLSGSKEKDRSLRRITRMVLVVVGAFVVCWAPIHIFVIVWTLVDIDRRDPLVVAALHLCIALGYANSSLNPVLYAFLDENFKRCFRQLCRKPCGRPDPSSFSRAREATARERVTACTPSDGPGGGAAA
UniProt P32300, whole entry: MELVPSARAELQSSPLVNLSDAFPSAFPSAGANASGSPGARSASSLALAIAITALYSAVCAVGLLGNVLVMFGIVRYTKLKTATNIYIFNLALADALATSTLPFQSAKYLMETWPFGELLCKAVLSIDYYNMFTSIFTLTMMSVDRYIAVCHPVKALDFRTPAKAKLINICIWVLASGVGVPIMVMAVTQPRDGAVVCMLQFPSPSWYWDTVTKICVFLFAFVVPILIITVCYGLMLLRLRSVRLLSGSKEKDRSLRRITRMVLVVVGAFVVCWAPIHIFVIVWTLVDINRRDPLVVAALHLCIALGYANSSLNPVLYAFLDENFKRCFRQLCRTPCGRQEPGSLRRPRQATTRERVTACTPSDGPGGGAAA
UniProt P42866, whole entry: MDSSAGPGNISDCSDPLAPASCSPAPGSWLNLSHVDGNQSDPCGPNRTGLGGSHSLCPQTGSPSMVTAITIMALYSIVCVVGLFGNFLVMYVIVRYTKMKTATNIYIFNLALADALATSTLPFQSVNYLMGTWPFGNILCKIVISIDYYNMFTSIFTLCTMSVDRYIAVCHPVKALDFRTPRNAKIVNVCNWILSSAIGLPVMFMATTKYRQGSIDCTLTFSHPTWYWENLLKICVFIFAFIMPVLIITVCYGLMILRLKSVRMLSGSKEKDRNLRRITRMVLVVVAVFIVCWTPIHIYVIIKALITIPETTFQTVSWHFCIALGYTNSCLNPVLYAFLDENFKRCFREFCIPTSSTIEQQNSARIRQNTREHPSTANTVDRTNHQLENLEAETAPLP

The next assay has as its target T2, mMOR (Mus musculus, UniProt P42866).
T2 construct: signal peptide (heterologous, not specified) (N); expressed in transfected cells; pcDNA3.1(+) construct made in house
Nature of the assay: BRET-based Nb33 recruitment assay at mMOR. Conditions: read-out: Emax mMOR.

Molecules are shown by their SMILES. Several values for one entry are separate records, joined by “and”; a condition that tells them apart may be missing. Equal values may be shown once.

As for `CC[C@@H]1CN2CC[C@@]3(O)C(=Nc4cc(Br)cc(OC)c43)[C@@H]2C[C@@H]1/C(=C\OC)C(=O)OC` [11-Br-7OH (24), 11-Br-7OH], the “Agonist activity of 7OH analogs at hDOR” value is 18.4127 at hDOR (Log[drug] (M) -5), 10.7527 at hDOR (Log[drug] (M) -6) and 11.4791 at hDOR (Log[drug] (M) -7).
Regarding `CC[C@@H]1CN2CC[C@@]3(O)C(=Nc4cccc(OC)c43)[C@@H]2C[C@@H]1/C(=C\OC)C(=O)OC` [7OH, 7-Hydroxymitragynine, reference compound], the “Agonist activity of 7OH analogs at mDOR” value at mDOR (Log[drug] (M) -7, listed as 7-OH-Mitragynine) is on record as 18.677; on mDOR (Log[drug] (M) -11, listed as 7-OH-Mitragynine) it was 16.3155. Moreover, the “Agonist activity of 7OH analogs at hDOR” value at hDOR (Log[drug] (M) -10, listed as 7-OH-Mitragynine) is 10.8062 and 10.4418.
The Emax is the greatest response seen or fitted, relative to the assay's reference. Consider `CN1CC[C@]23c4c5ccc(O)c4O[C@H]2[C@@H](O)C=C[C@H]3[C@H]1C5` [Morphine, morphine, reference compound], for which the Emax on mMOR is approximately 67%.
As for `CC[C@@H]1CN2CC[C@@]3(O)C(=Nc4cc(F)cc(OC)c43)[C@@H]2C[C@@H]1/C(=C\OC)C(=O)OC` [11-F-7OH (22), 11-Fluoro-7-hydroxymitragynine], the “Agonist activity of 7OH analogs at mDOR” value at mDOR (Log[drug] (M) -8) turned out to be 8.2486. For the same compound, the “Agonist activity of 7OH analogs at hDOR” value on hDOR (Log[drug] (M) -9) was 11.504; on hDOR (Log[drug] (M) -13), 2.358.
Turning to `CC[C@@H]1CN2CC[C@@]3(O)C(=Nc4cc(Cl)cc(OC)c43)[C@@H]2C[C@@H]1/C(=C\OC)C(=O)OC` [11-Cl-7OH (23), 11-Cl-7OH], the “Agonist activity of 7OH analogs at mDOR” value at mDOR (Log[drug] (M) -5) was 18.4666; on mDOR (Log[drug] (M) -9), 12.8985 and 12.9272; at mDOR (Log[drug] (M) -13) it was -2.746.
